{"source": "patent US20130059324A1", "about": "“SYSTEMS AND METHODS FOR MECHANICALLY STRAINED CELL CULTURE” (THE UNIVERSITY OF KANSAS, priority 2010, published 2013)", "test_system": "A549 cells", "assay": "Prototype 96-well plate, viable cell count (Vi-Cell) with and without mechanical forces"}
{"compound": "COc1cccc2c1C(=O)c1c(O)c3c(c(O)c1C2=O)C[C@@](O)(C(=O)CO)C[C@@H]3O[C@H]1C[C@H](N)[C@H](O)[C@H](C)O1", "note": "[Doxorubicin]", "values": [{"measurement": "Viable Cell Count after 24 hours of drug exposure, With forces (Ef)", "result": 11750.0}, {"measurement": "Viable Cell Count after 24 hours of drug exposure, Without forces (E)", "result": 30500.0}]}
